The assay deals with Colletotrichum graminicola strains CG1 and BF0911. Particulars: 22 days after inoculation.
Setting [1] is: Strain BF0911, 30 g a.i./100 kg seeds, untreated inoculated control rating 3.
Setting [2] is: Strain BF0911, 60 g a.i./100 kg seeds, untreated inoculated control rating 3.
[3] abbreviates: Strain BF0911, 120 g a.i./100 kg seeds, untreated inoculated control rating 3.
Where [4] appears, read: Strain CG1, 30 g a.i./100 kg seeds, control rating 3.
The mark [5] stands for this setting: Strain CG1, 60 g a.i./100 kg seeds, control rating 3.
[6] abbreviates: Strain CG1, 120 g a.i./100 kg seeds, control rating 3.

Structures are written as SMILES. Read-outs that look alike come from different tables or passages of the source.

The values below come from patent US20170311602A1, “METHODS AND COMPOSITIONS FOR THE CONTROL OF FUNGAL PATHOGENS IN CROP PLANTS” (Monsanto Technology LLC, priority 2014, published 2017).

As to `CO/N=C(/C1=NOCCO1)c1ccccc1Oc1ncnc(Oc2ccccc2Cl)c1F` [Fluoxastrobin, fluoxastrobin], the Efficacy is, setting by setting: under setting [1], 0 % abb; under setting [2], 0 % abb; under setting [3], 30 % abb; under setting [4], 11 % abb; under setting [5], 22 % abb; under setting [6], 11 % abb.

For `OC(Cc1ccccc1Cl)(Cn1nc[nH]c1=S)C1(Cl)CC1` (stereo not drawn) [Prothioconazole, prothioconazole], the Efficacy runs as follows: under setting [1], 0 % abb; under setting [2], 0 % abb; under setting [3], 20 % abb; under setting [4], 0 % abb; under setting [5], 6 % abb; under setting [6], 17 % abb.
